Measured values as given in paper PMC4964404, “TSPO PIGA Ligands Promote Neurosteroidogenesis and Human Astrocyte Well-Being” (International Journal of Molecular Sciences, 2016).

Protein sequences, listed by entry. Tags and fused reporters are not part of them. Residues count along the entry.
UniProt P30536, 2-169: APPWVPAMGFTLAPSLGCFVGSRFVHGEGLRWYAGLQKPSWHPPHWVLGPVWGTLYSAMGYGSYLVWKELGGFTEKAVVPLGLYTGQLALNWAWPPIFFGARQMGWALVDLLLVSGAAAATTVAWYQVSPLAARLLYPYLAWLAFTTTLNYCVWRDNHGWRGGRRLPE

Biological target: T1, Translocator protein 18 kDa (TSPO) (Homo sapiens, UniProt P30536)
T1 construct: native TSPO in membranes of normal human astrocytes
Experiment: [3H]PK11195 saturation radioligand binding

Which Kd does the source give for `CCC(C)N(C)C(=O)c1cc2ccccc2c(-c2ccccc2Cl)n1` (stereo not shown) [PK11195, 1-(2-chlorophenyl)-N-methyl-N-(1-methylpropyl)-3-isoquinoline carboxamide] here?
Its Kd is 2.8 nM.
